One data set deals with hKv1.1 (Homo sapiens, UniProt Q09470). Briefly: cell-based. Conditions: Kv1.1 (IWQ) IC50 (nM, Avg).
Data set [1] relates to IFN-g secretion from T cells in human whole blood. The data set is classed as cell-based. Conditions: read-out: WB (IFNg) IC50 (nM, Avg).
The target of a further data set is hKv1.3 (Homo sapiens, UniProt P22001). Briefly: cell-based. Conditions: Kv1.3 (IWQ) IC50 (nM, Avg).
The subject of data set [2] is mouse peritoneal mast cells.
Data set [3] deals with human CD34-derived mast cells.
For data set [4] the following is noted: rat, in vivo, sc, cited from earlier work.
The test system of data set [5] is IL-2 secretion from T cells in human whole blood. The data set is classed as cell-based. Conditions: read-out: WB (IL-2) IC50 (nM, Avg).

Amino acid sequences for entries named in this document (tags omitted).
UniProt Q09470, whole entry: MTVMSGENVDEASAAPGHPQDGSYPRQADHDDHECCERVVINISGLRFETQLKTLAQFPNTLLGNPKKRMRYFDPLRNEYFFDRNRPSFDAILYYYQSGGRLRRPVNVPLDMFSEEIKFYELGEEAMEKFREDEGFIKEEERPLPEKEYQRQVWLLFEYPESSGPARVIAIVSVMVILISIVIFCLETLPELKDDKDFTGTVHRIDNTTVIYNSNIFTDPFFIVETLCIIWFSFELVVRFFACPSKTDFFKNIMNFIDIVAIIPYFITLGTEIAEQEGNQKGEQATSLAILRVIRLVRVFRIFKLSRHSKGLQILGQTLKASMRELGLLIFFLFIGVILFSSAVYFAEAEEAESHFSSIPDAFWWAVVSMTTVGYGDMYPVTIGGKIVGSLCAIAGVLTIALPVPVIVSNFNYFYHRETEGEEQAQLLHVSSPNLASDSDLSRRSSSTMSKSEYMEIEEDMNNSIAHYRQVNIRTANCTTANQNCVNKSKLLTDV
UniProt P22001, whole entry: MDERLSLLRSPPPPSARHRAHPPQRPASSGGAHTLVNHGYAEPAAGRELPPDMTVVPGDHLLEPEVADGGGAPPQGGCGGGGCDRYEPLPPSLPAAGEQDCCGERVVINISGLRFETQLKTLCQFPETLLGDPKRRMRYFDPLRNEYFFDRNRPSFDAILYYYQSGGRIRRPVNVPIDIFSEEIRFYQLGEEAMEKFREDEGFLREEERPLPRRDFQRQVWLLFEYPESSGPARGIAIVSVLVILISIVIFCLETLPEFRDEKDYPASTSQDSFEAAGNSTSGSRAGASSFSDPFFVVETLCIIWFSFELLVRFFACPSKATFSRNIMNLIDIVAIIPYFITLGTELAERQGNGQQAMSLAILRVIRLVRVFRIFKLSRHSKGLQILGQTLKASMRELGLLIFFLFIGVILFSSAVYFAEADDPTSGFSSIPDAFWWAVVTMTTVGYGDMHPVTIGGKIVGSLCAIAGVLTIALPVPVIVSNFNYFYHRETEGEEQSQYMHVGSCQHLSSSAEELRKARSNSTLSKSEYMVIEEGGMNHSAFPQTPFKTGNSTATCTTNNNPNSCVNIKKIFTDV

Structures are written as SMILES.

Consider `CCCC[C@@H]1NC(=O)[C@H](CO)NC(=O)[C@H](Cc2c[nH]cn2)NC(=O)[C@H](CCCCN)NC(=O)[C@@H]2CSSC[C@@H]3NC(=O)[C@H]([C@@H](C)O)NC(=O)[C@H](CCCCN)NC(=O)[C@H](CCCNC(=N)N)NC(=O)[C@H](CSSC[C@H](NC(=O)[C@H](CCCNC(=N)N)NC(=O)[C@H](CO)NC(=O)[C@H](CCCCN)NC(=O)[C@@H]4CCCN4C(=O)[C@H]([C@@H](C)CC)NC(=O)[C@H]([C@@H](C)O)NC(=O)[C@H](CC(=O)O)NC(=O)[C@H]([C@@H](C)CC)NC(=O)[C@@H](NC(=O)[C@H](CO)NC(=O)[C@H](CCCNC(=N)N)NC(=O)COCCOCCNC(=O)[C@@H](N)Cc4ccc(OP(=O)(O)O)cc4)CSSC[C@@H](C(N)=O)NC(=O)[C@H]([C@@H](C)O)NC(=O)CNC3=O)C(=O)N[C@@H]([C@@H](C)O)C(=O)N[C@@H](C)C(=O)N[C@@H](Cc3ccccc3)C(=O)N[C@@H](CCC(N)=O)C(=O)N2)NC(=O)[C@H](Cc2ccccc2)NC(=O)[C@H](CO)NC(=O)[C@H](CC(C)C)NC(=O)[C@H](CCCNC(=N)N)NC(=O)[C@H](Cc2ccc(O)cc2)NC(=O)[C@H](CCCCN)NC1=O` [[Nle21]ShK(L5)-amide, reference compound], for which the IC50 at hKv1.1 is 0.03 nM; in data set [1] it was 0.492 nM; at hKv1.3, 0.17 nM.
Turning to `CCCC[C@@H]1NC(=O)[C@H](CO)NC(=O)[C@H](Cc2c[nH]cn2)NC(=O)[C@H](CCCCN)NC(=O)[C@@H]2CSSC[C@@H]3NC(=O)[C@H]([C@@H](C)O)NC(=O)[C@H](CCCCN)NC(=O)[C@H](CCCNC(=N)N)NC(=O)[C@H](CSSC[C@H](NC(=O)[C@H](CCCNC(=N)N)NC(=O)[C@H](CO)NC(=O)[C@H](CCCCN)NC(=O)[C@@H]4CCCN4C(=O)[C@H]([C@@H](C)CC)NC(=O)[C@H]([C@@H](C)O)NC(=O)[C@H](CC(=O)O)NC(=O)[C@H]([C@@H](C)CC)NC(=O)[C@@H](NC(=O)[C@H](CO)NC(=O)[C@H](CCCNC(=N)N)NC(=O)COCCOCCNC(=O)[C@@H](N)Cc4ccc(P(=O)(O)O)cc4)CSSC[C@@H](C(N)=O)NC(=O)[C@H]([C@@H](C)O)NC(=O)CNC3=O)C(=O)N[C@@H]([C@@H](C)O)C(=O)N[C@@H](C)C(=O)N[C@@H](Cc3ccccc3)C(=O)N[C@@H](CCC(N)=O)C(=O)N2)NC(=O)[C@H](Cc2ccccc2)NC(=O)[C@H](CO)NC(=O)[C@H](CC(C)C)NC(=O)[C@H](CCCNC(=N)N)NC(=O)[C@H](Cc2ccc(O)cc2)NC(=O)[C@H](CCCCN)NC1=O` [ShK-192], in data set [2], the “Degranulation / histamine release of mouse peritoneal mast cells” value is “did not degranulate”. Also, the “Degranulation / histamine release of human CD34-derived mast cells” value in data set [3] is “did not degranulate”.
As to `CC[C@H](C)[C@@H]1NC(=O)[C@@H](NC(=O)[C@H](CO)NC(=O)[C@H](CCCNC(=N)N)NC(=O)COCCOCCNC(=O)[C@@H](N)Cc2ccc(OP(=O)(O)O)cc2)CSSC[C@@H](C(=O)O)NC(=O)[C@H]([C@@H](C)O)NC(=O)CNC(=O)[C@@H]2CSSC[C@@H]3NC(=O)[C@H](CCC(N)=O)NC(=O)[C@H](Cc4ccccc4)NC(=O)[C@H](C)NC(=O)[C@H]([C@@H](C)O)NC(=O)[C@H](CSSC[C@H](NC(=O)[C@H](Cc4ccccc4)NC(=O)[C@H](CO)NC(=O)[C@H](CC(C)C)NC(=O)[C@H](CCCNC(=N)N)NC(=O)[C@H](Cc4ccc(O)cc4)NC(=O)[C@H](CCCCN)NC(=O)[C@H](CCSC)NC(=O)[C@H](CO)NC(=O)[C@H](Cc4cnc[nH]4)NC(=O)[C@H](CCCCN)NC3=O)C(=O)N[C@@H](CCCNC(=N)N)C(=O)N[C@@H](CCCCN)C(=O)N[C@@H]([C@@H](C)O)C(=O)N2)NC(=O)[C@H](CCCNC(=N)N)NC(=O)[C@H](CO)NC(=O)[C@H](CCCCN)NC(=O)[C@@H]2CCCN2C(=O)[C@H]([C@@H](C)CC)NC(=O)[C@H]([C@@H](C)O)NC(=O)[C@H](CC(=O)O)NC1=O` [ShK-L5], in data set [4] (0.2 mg/kg), the AUC0-inf is on record as 97, the AUC0-t is 93 ng·h/mL, the “DNAUC (0-inf)” value is given as 487 and the MRT is 2 h. For the same compound, in data set [4], the Circulating half-life result is “about 50 min”.
Regarding `CC[C@H](C)[C@@H]1NC(=O)[C@@H](NC(=O)[C@H](CO)NC(=O)[C@@H](N)CCCNC(=N)N)CSSC[C@@H](C(=O)O)NC(=O)[C@H]([C@@H](C)O)NC(=O)CNC(=O)[C@@H]2CSSC[C@@H]3NC(=O)[C@H](CCC(N)=O)NC(=O)[C@H](Cc4ccccc4)NC(=O)[C@H](C)NC(=O)[C@H]([C@@H](C)O)NC(=O)[C@H](CSSC[C@H](NC(=O)[C@H](Cc4ccccc4)NC(=O)[C@H](Cc4cccc5ccccc45)NC(=O)[C@H](CC(C)C)NC(=O)[C@H](CCCNC(=N)N)NC(=O)[C@H](Cc4ccc(O)cc4)NC(=O)[C@H](CCCCN)NC(=O)[C@H](CCSC)NC(=O)[C@H](CO)NC(=O)[C@H](Cc4c[nH]cn4)NC(=O)[C@H](CCCCN)NC3=O)C(=O)N[C@@H](CCCNC(=N)N)C(=O)N[C@@H](CCCCN)C(=O)N[C@@H]([C@@H](C)O)C(=O)N2)NC(=O)[C@H](CCCNC(=N)N)NC(=O)[C@H](CO)NC(=O)[C@H](CCCCN)NC(=O)[C@@H]2CCCN2C(=O)[C@H]([C@@H](C)CC)NC(=O)[C@H]([C@@H](C)O)NC(=O)[C@H](CC(=O)O)NC1=O` [[1-Nal26]ShK], the values for the IC50 (in data set [5]; in data set [1]; against hKv1.3) were 0.357 nM, 0.573 nM and 0.352 nM, respectively.

As a reminder, the IC50 is the concentration that inhibits the measured activity by half. A word on the MRT: it is the average time that molecules of a dose stay in the body.

(Values after patent US20120121591A1 (priority 2009, published 2012).)
